Chains of the proteins cited; added tags and fusions are not shown.
UniProt Q92847, whole entry: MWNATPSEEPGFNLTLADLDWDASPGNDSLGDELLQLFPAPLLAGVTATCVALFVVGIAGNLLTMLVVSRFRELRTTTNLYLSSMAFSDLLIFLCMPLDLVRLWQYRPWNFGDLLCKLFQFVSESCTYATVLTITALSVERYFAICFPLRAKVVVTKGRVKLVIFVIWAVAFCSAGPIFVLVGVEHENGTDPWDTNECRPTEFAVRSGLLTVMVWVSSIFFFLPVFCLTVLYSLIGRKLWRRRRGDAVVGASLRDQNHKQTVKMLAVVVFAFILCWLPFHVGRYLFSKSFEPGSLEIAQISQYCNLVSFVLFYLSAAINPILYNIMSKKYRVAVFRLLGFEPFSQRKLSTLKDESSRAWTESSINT
UniProt O43193, whole entry: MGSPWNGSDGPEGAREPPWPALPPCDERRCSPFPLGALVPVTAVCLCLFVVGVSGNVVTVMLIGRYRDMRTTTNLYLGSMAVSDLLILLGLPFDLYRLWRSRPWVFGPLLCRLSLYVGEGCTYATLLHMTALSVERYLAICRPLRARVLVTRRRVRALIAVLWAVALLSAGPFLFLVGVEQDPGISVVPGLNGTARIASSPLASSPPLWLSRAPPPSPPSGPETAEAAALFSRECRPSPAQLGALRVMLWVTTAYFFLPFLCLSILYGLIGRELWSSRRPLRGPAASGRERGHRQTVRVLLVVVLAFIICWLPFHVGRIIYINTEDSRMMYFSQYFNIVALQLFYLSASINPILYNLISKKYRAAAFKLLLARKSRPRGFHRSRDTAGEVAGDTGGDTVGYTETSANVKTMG

In patent US7550431B2, “Spatially-defined macrocycles incorporating peptide bond surrogates” (Tranzyme Pharma Inc., priority 2003, dated 2009):

Experiments:
[1] = molecular target: human ghrelin receptor (hGHS-R1a) (Homo sapiens, UniProt Q92847); assay: Competitive radioligand binding assay (ghrelin receptor), Method B2; settings: read-out: Binding Activity [Ki (nM)], [125I]-ghrelin competition, HEK-293 cell membranes
human motilin receptor = human motilin receptor (Homo sapiens, UniProt O43193); assay: Competitive radioligand binding assay (motilin receptor), Method B1; settings: read-out: Binding Activity [Ki (nM)], [125I]-motilin competition, CHO cell membranes

| Compound | Ki [1] | Ki (human motilin receptor) |
| --- | --- | --- |
| CCC[C@@H]1NC(=O)[C@@H](C(C)C)NC[C@@H](Cc2ccc(O)cc2)NCCOc2ccccc2CCCNC1=O |  | 1000 to 10000 nM |
| CCC(C)[C@@H]1NCCCCCCNC(=O)[C@@H](Cc2ccc(F)cc2)NC(=O)[C@@H](C)N(C)C1=O (stereo partly shown) | 1000 to 10000 nM |  |
| CCC[C@@H]1NCc2ccccc2Sc2ccccc2CNC(=O)[C@@H](Cc2ccccc2)NC(=O)CN(C)C1=O | 100 to 1000 nM |  |
| CC1C(=O)NC(Cc2ccc(F)cc2)C(=O)NCCOCCOCCNC(C2CC2)C(=O)N1C (stereo not shown) | 1000 to 10000 nM |  |
| CCC[C@@H]1OC(=O)[C@@H](C(C)C)NC(=O)[C@@H](Cc2ccc(O)cc2)NCCOc2ccccc2CCCNC1=O |  | 100 to 1000 nM |

Second part, the compound after the results:

| Ki [1] | Ki (human motilin receptor) | Compound |
| --- | --- | --- |
| 1000 to 10000 nM |  | CCC(C)[C@@H]1NCCOc2ccccc2C=CCNC(=O)N(Cc2ccccc2)NC(=O)[C@@H](C)N(C)C1=O (stereo partly shown) |
|  | 1000 to 10000 nM | CCC[C@@H]1NC(=O)[C@H](C(C)C)/C=C/[C@@H](Cc2ccc(OC)cc2)NCCOc2ccccc2CCCNC1=O |
